Test results taken from ChEMBL document CHEMBL3763124, “N-Benzylbenzamides: A Novel Merged Scaffold for Orally Available Dual Soluble Epoxide Hydrolase/Peroxisome Proliferator-Activated Receptor γ Modulators” (J Med Chem, 2016).

By UniProt entry, the sequences of proteins in these tests, tags left out. Where a name states a change or a piece, a line headed by the entry shows the natural chain unless it says otherwise.
UniProt P37231: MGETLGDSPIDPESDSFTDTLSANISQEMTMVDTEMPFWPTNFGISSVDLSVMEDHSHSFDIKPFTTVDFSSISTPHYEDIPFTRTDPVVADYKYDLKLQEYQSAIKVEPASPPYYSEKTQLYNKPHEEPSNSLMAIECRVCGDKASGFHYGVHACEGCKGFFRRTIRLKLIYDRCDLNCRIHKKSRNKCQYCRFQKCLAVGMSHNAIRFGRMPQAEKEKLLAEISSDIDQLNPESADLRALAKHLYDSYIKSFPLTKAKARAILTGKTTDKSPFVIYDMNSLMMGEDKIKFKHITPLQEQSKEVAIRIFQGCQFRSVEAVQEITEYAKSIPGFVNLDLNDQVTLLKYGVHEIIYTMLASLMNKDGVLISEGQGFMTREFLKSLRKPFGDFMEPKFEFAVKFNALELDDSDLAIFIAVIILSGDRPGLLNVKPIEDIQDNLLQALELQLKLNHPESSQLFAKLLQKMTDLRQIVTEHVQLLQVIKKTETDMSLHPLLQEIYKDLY

Tested on: not listed separately
Assay: Apparent volume of distribution during terminal phase in RjOrl:Swiss (CD-1) mouse plasma at 30 mg/kg, po
Assay type: ADME, organism-based
Settings: read-out: Vz/F

Molecule `CCC(Cc1ccc(C(=O)NCc2ccccc2C(F)(F)F)cc1)C(=O)O` (stereo unspecified) has a Vd/F of 8 L/kg.

Molecular target: T1, Peroxisome proliferator-activated receptor gamma (Homo sapiens, UniProt P37231)
Assay: Transactivation of human PPARgamma expressed in African green monkey COS7 cells at 10 uM incubated overnight by dual-glo luciferase reporter gene assay
Assay type: cell-based
Settings: COS-7

Going from `CCOC(=O)C(CC)Cc1ccc(C(=O)NCc2ccccc2Cl)cc1` (stereo unspecified) to `CCOC(=O)C(CC)Cc1ccc(C(=O)NCc2ccccc2C)cc1` (stereo unspecified), the Activity rises from 14% to 15%.

`O=C(O)CCc1ccc(C(=O)NCc2ccccc2C(F)(F)F)cc1` and `CCOC(=O)CCc1ccc(C(=O)NCc2ccccc2C(F)(F)F)cc1` are the same in Activity: 38% for the first, 38% for the second.

First: CCC(Cc1ccc(C(=O)NCc2ccc(F)cc2)cc1)C(=O)O (stereo unspecified)
Second: O=C(NCc1ccccc1C(F)(F)F)c1ccc(C2CC2C(=O)O)cc1 (stereo unspecified)
The Activity of the first is lower: 23% for the first, 24% for the second.

Molecular target: T2, Peroxisome proliferator-activated receptor alpha (Homo sapiens) (UniProt Q07869)
T2 sequence (whole entry): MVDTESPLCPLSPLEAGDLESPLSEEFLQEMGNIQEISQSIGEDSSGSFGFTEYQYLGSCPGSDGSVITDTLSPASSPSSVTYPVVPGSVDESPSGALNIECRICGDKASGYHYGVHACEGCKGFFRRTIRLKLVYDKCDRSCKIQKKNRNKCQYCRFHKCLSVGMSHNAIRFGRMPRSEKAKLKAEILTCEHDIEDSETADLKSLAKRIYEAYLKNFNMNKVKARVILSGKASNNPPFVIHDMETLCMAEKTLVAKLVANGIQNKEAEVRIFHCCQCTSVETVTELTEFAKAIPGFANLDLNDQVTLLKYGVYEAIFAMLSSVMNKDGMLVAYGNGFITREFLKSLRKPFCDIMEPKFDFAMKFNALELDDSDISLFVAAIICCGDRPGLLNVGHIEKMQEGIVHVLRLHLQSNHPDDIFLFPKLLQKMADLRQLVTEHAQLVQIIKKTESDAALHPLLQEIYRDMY
Assay: Transactivation of human PPARalpha expressed in African green monkey COS7 cells incubated overnight by dual-glo luciferase reporter assay relative to GW7647
Assay type: cell-based
Settings: COS-7

In the case of `CCC(Cc1ccc(C(=O)NCc2ccc(C(F)(F)F)cc2)cc1)C(=O)O` (stereo unspecified), the Emax is reported as 89%.

Molecular target: T1, Peroxisome proliferator-activated receptor gamma
Settings: not given

First: CCC(Cc1ccc(C(=O)NCc2ccccc2)cc1)C(=O)O (stereo unspecified)
Second: CCC(Cc1ccc(C(=O)NCc2ccccc2C)cc1)C(=O)O (stereo unspecified)
The EC50 of the first is 3.4-fold higher: 13.5 µM for the first, 4 µM for the second.

Going from `CCC(Cc1ccc(C(=O)NCc2ccc(Cl)cc2)cc1)C(=O)O` (stereo unspecified) to `CCC(Cc1ccc(C(=O)NCc2ccc(C(F)(F)F)cc2)cc1)C(=O)O` (stereo unspecified), the EC50 rises from 4 µM to 6.3 µM (1.6-fold). The first is the more potent here.

`CCOC(=O)C(CC)Cc1ccc(C(=O)NCc2ccc(F)cc2C(F)(F)F)cc1` (stereo unspecified) and `CCOC(=O)C(CC)Cc1ccc(C(=O)NCc2ccc(OC)cc2C(F)(F)F)cc1` (stereo unspecified) are within 1.5-fold of each other in EC50: 2.8 µM for the first, 2 µM for the second.

Compared with `CCC(Cc1ccc(C(=O)NCc2ccc(F)cc2C(F)(F)F)cc1)C(=O)O` (stereo unspecified), `CCC(Cc1ccc(C(=O)NCc2ccc(OC(F)(F)F)cc2)cc1)C(=O)O` (stereo unspecified) is 3.3-fold higher in EC50: 0.6 µM for the first, 2 µM for the second. The first is the more potent here.
